Earlier results on 1 compound are cited in patent US9403784B1, “Fumarate compounds, pharmaceutical compositions thereof, and methods of use” (priority 2015, dated 2016).

The data set deals with ALS.

The structures appear in SMILES notation.

On to `Nc1nc2ccc(OC(F)(F)F)cc2s1` [riluzole], for which the extension of survival result was “about three”.
